This is an account of results in patent US7488721B2, “Real time methylumbelliferone-based assay” (McMaster University, priority 2004, dated 2009).

The chains behind the UniProt entries cited, without tags or fusion partners. Residues count along the entry.
UniProt P06865, 23-74 partner limits assumed: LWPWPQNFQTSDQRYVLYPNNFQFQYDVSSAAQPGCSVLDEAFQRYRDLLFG
UniProt P06865, 89-529: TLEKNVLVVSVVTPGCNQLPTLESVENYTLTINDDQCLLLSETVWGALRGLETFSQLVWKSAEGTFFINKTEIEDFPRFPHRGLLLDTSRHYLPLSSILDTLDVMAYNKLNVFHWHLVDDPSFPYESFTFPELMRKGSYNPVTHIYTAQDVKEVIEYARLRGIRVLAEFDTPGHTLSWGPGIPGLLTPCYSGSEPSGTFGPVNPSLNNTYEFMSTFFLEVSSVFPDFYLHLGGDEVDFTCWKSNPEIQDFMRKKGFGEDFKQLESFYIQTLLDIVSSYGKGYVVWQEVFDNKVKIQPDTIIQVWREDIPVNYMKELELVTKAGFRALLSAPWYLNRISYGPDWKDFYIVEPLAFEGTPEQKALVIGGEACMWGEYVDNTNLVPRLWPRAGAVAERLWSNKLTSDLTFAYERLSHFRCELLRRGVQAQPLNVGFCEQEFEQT
UniProt P07686, 50-107 partner limits assumed: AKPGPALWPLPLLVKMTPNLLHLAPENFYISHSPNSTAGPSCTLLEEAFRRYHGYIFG
UniProt P07686, 315-556 limits assumed: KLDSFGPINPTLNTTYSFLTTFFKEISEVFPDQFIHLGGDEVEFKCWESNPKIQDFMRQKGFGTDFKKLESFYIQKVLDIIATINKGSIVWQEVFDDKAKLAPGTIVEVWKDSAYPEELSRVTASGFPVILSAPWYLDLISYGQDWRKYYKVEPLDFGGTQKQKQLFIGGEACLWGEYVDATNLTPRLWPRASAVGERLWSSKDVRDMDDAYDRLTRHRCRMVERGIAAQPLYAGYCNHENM
UniProt P07686, 122-311 limits assumed: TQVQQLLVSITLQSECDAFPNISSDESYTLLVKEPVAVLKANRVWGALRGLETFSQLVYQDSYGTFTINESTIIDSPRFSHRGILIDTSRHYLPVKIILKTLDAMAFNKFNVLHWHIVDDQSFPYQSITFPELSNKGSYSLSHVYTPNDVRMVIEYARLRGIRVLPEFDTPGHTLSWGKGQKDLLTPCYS

In general, pIC50 refers to the IC50 on a negative log10 scale, so that one unit is a factor of ten. A high value points to a small IC50.

The assay has as its target Human N-acetyl-β-hexosaminidase A (HexA) (Homo sapiens, UniProt P06865+P07686). In words: biochemical.

pIC50: −log10 of the molar value.

With `CCc1nc(N)nc(N)c1-c1ccc(Cl)cc1` [pyrimethamine, reference compound], the pIC50 was about 6.22.
